According to patent US20220340983A1, “SYSTEMS AND ASSAYS FOR IDENTIFYING PU.1 INHIBITORS” (Massachustts Institute of Technology, priority 2019, published 2022):
pIC50: −log10 of the molar value.

Key:
PU.1 = PU.1 (Mus musculus, UniProt P17433); experiment: Luciferase assay (luminescence) in BV2 PU.1-Luciferase reporter cells; type: cell-based; settings: luminescence reduction in BV2 PU.1-Luciferase cells, concentration-response, Hill's equation
[1] = test system: PU.1 dependent gene expression; experiment: RT-qPCR of mRNA levels in BV2 PU.1-Luciferase cells (validation round 3); type: cell-based, mouse; settings: 2-day treatment

| SMILES | pIC50 (PU.1) | mRNA levels Apoe [1] | mRNA levels IL1β [1] | mRNA levels Lucif. [1] | mRNA levels Spi1 [1] | mRNA levels Trem2 [1] | mRNA levels Tyrobp [1] |
| --- | --- | --- | --- | --- | --- | --- | --- |
| CN1CC=C(/C=C/c2ccc(-c3nc4ccccc4s3)o2)CC1 | 7.31 | 1.035 multiples of 1× | 0.767 multiples of 1× | 0.291 multiples of 1× | 0.885 multiples of 1× | 0.863 multiples of 1× | 0.922 multiples of 1× |
| CCOc1ccc(-c2nc(CSCC(=O)NCCc3ccccc3)c(C)o2)cc1 | 5.92 | 1.036 multiples of 1× | 1.097 multiples of 1× | 0.437 multiples of 1× | 1.065 multiples of 1× | 1.024 multiples of 1× | 0.994 multiples of 1× |
